Reference: patent publication US10308614B2 (priority 2015, dated 2019)

Target: His-BRG1 (A1448-S1575; Swiss Prot P51532) (Homo sapiens (Human), UniProt P51532)
Type: binding
Conditions: TR-FRET, His-BRG1 4 nM, biotinylated ligand 40 nM; read-out: BRG1 HTRF IC50

| Compound | IC50 [nM] |
| --- | --- |
| Nc1nnc(-c2ccccc2O)cc1N1CC[C@@]2(O)CCCC[C@@H]2C1 [Example 28, (trans-4a,8a)-2-(3-amino-6-(2-hydroxyphenyl)pyridazin-4-yl)octahydroisoquinolin-4a(2H)-ol] | 17.2 |
| Nc1nnc(-c2ccccc2O)cc1N1CC[C@@]2(O)CCCC[C@@H]2C1 (single isomer, unassigned) [Example 84, (trans-4a,8a)-2-(3-amino-6-(2-hydroxyphenyl)pyridazin-4-yl)decahydroisoquinolin-4a-ol] | 8.4 |
